# Assay results as given in patent US10150792B2, “Bismuth-containing compounds, coordination polymers, methods for modulating pharmacokinetic properties of biologically active agents, and methods for treating patients” (priority 2010, dated 2018).
# Type: in vivo
# Conditions: rat, oral
# Experimental: Method for Rat Pharmacokinetic Studies: Rat “feed and bleed” studies were performed with LD and synthetically prepared LD:metal complexes wherein key PK parameters, such as maximum concentration (Cmax), AUC, and time of maximum concentration (tmax) were measured vis-à-vis the reference drug, LD.
# In each experiment, male Sprague-Dawley rats with jugular vein catheters (250-300 g; n=5-10) are used. These rats were obtained from a commercial source (Harlan Laboratory Animals, Dublin, Va.) and housed individually. Water was available ad libitum. Rats were fed certified rodent chow ad libitum. After arrival, the health of rats was assessed and animals were placed in quarantine for a minimum of five days during which time general health was assessed. At the end of quarantine, rats were moved to permanent animal quarters for access and study.
# All studies employed oral dosing using size 9 rodent gelatin capsules from Torpac (Fairfield, N.J.). […] Plasma samples are then treated according to developed methodology (e.g., FEBS Lett., 2002, 524 (1-3), 199-203), and analyzed (LC/MS/MS) for drug concentrations. Average plasma values (±SEM) for each time are calculated and PK parameters, including Cmax, tmax, and total amount absorbed (AUC0-6h), are determined using standard software. […]
substance,measurement,value
tris(LD)bismuth oxide [Bi(O)(dopa)3],tmax relative to LD/carbidopa,later tmax
